Ends that are not written are not given here.
Target: human TSG101 UEV domain (residues 2-145), wild type (human) (UniProt Q99816)
Assay: ITC

Amino acid sequences for entries named in this document (tags omitted). A change or cut given only in a name is not applied to a line headed by its entry.
UniProt Q99816: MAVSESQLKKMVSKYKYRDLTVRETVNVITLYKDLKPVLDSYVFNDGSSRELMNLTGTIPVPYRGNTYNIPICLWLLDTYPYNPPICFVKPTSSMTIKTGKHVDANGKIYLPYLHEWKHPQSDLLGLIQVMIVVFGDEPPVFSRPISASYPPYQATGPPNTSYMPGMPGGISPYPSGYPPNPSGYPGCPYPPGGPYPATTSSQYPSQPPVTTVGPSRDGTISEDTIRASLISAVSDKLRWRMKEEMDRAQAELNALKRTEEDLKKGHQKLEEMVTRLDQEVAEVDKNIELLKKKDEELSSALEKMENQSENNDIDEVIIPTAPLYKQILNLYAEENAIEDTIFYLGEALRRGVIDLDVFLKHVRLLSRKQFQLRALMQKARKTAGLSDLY

- Kd: 290 µM
B1: Hrs PSAP motif nonapeptide (residues 346-354 of human Hrs) … (peptide)
peptide: Ac-PTPSAPVPL
